Inhibition data for 6 compounds are collected here from PubChem BioAssay AID540248 (The Scripps Research Institute Molecular Screening Center, 2011).

Only a part is listed here, and it is no random draw. The source made the active and inactive calls.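 How the source made its calls: active means mean inhibition over three repeats above a set limit taken from the earlier primary screen (cut at about 37% in these data); inactive means the rest.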

As usually defined, the inhibition is the share of the control response that was lost under treatment.

This experiment deals with Serine protease HTRA1 (Homo sapiens) (UniProt Q92743). Put plainly: confirming inhibition of human HTRA1 – biochemical, fluorescence polarization, confirmation (AID 540248).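 Further: 0% = HTRA1 with DMSO and 100% = wells lacking HTRA1; inhibitors block probe binding so polarization drops and inhibition rises.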 The note with it: recombinant HTRA1, FP-rhodamine activity-based probe, at 5.96 µM, active compounds read high. On the technique in general: In fluorescence polarisation assays a small probe gives low polarisation when free and higher when bound to something large.
Take `C[N+]1=C2C=CC=CC=C2SC12C([N+](=O)[O-])=CC([N+](=O)[O-])=C[C-]2[N+](=O)[O-]` (stereo unspecified): the inhibition was active: 55%.
Under `O=[N+]([O-])c1cc([N+](=O)[O-])c(CCNc2ccccc2)c([N+](=O)[O-])c1` stands inactive: 14.8%; under `CSc1ccc(Nc2c([N+](=O)[O-])cc([N+](=O)[O-])cc2[N+](=O)[O-])cc1`, inactive: 28.6%.
Then `Nc1cccc2c([As](=O)(O)O)cccc12`, with inactive: 4.8%.
For `Cc1ccc(NCCc2c([N+](=O)[O-])cc([N+](=O)[O-])cc2[N+](=O)[O-])cc1`, the inhibition was inactive: 20.1%.
Then `CN(C)C(=O)c1cc([N+](=O)[O-])cc2c1-c1c(cc([N+](=O)[O-])cc1[N+](=O)[O-])C2=O`, with active: 52.4%.
